Key:
[1] = molecular target: T1, Neuromedin-K receptor (Homo sapiens, UniProt P29371)
[2] = molecular target: T1, Neuromedin-K receptor; remark: listed apart in the source
[3] = in vivo; settings: rhesus monkey, plasma, po, 5 mg/kg
[4] = in vivo; settings: rat, brain, 1 mg/kg

Protein sequences, listed by entry. Tags and fused reporters are not part of them.
UniProt P29371, whole entry: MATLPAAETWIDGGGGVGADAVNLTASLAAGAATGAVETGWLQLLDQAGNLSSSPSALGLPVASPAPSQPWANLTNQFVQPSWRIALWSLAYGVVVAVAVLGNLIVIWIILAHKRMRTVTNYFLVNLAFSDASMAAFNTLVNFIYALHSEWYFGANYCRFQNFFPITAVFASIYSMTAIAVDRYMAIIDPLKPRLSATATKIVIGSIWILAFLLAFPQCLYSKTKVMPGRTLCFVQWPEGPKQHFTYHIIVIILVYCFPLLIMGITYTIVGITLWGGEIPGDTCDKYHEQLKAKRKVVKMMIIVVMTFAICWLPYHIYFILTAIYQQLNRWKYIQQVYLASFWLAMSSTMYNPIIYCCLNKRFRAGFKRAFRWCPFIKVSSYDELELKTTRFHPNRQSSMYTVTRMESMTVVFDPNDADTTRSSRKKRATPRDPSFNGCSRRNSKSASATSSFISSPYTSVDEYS

Ki [1]	IC50 [2]	SMILES	fraction unbound at […] [3]	fraction unbound at 1 h [4]
–	–	Cc1nsc(-c2nnc3n2CCN(C(=O)c2ccc(F)cc2)[C@@H]3C)n1 [FEZOLINETANT]	0.532	0.525
1260 nM	1260 nM	C[C@@H]1c2nnc(-c3ncns3)n2CCN1C(=O)c1ccc(F)cc1	–	–
10000 nM	15800 nM	Cc1nnc(-c2nnc3n2CCN(C(=O)c2ccc(F)cc2)[C@@H]3C)s1	–	–

SMILES	Ki [1]	IC50 [2]	fraction unbound at […] [3]	fraction unbound at 1 h [4]
Cc1nsc(-c2nnc3n2CCN(C(=O)c2ccc(F)cc2)C3(C)C)n1	200 nM	631 nM	–	–

Reference: ChEMBL document CHEMBL3608214, “Optimization of Novel Antagonists to the Neurokinin-3 Receptor for the Treatment of Sex-Hormone Disorders (Part II)” (ACS Med Chem Lett, 2015)
